Ab-95 light chain CDR variants: yeast mating affinities

Binding partner: SARS-CoV-2 spike HR2 peptide, sequence PDVDLGDISGINAS.

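The parent was found by panning a naive human phage display library on the peptide. In library AAYL52, one, two or three CDR residues were substituted; doubles and triples were drawn at random. Affinity was read by AlphaSeq, a pooled yeast mating assay with surface-displayed partners. Pairs that bind mate more often; barcode pairs of the diploids are counted by sequencing. Each replicate has its own calibration line, from reference interactions of the BCL2 family. There are three technical replicates.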

Each scFv is VH, the linker GGGGSGGGGSGGGGS, VL, as in the parent Ab-95, and differs from it in the CDRs of the light chain only.
VH: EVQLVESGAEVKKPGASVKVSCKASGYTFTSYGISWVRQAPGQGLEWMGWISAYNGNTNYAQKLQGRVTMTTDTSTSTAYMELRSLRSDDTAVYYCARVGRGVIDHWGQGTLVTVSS
VL: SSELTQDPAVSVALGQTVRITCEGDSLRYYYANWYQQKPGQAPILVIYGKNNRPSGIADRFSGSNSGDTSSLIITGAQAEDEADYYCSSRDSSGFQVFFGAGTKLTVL

Each variant is given by its three light chain CDRs, as the data file delimits them; those of the parent are EGDSLRYYYAN, GKNNRPS, SSRDSSGFQVF. Affinities are written as log10 Kd with Kd in nM; a lower number is a better binder. A pair that was not seen in that replicate is written "nd"; this usually means weak binding, but a binder can also be missed. As a blank, each scFv also met three strains without target: over library AAYL52, 28% of these pairings were detected, typically at 3.91 and seldom below 2.90. The control count says in how many pairings with the empty strains this scFv gave a signal, with their mean in brackets. Parent in this assay: reference entry 2.31, copy in this library 2.25.

| CDR-L1 | CDR-L2 | CDR-L3 | log10 Kd (nM) by replicate | signal with controls |
|---|---|---|---|---|
| EGDSFRYYYAN | GKNNRPS | SSRSGSGFQVF | 3.80 / 3.02 / nd | 0 of 9 |
| EGDSLRYYYAN | GKNNRPS | SSRPYSGFQEF | 5.26 / 3.70 / nd | 2 of 9 (4.29) |
| EGDSARYYYAN | GFNNRPS | SSRDSGGFQVF | 3.59 / 4.80 / 4.40 | 4 of 9 (3.72) |
| EGDSSRYYYAS | GKNNRPS | SSRDSSGFQVC | 3.35 / nd / nd | 2 of 9 (3.88) |
| EGDSLRYYYAN | VKNNRPS | SSRDTAGFQVF | 3.94 / nd / 4.48 | 1 of 9 (3.72) |
| EGCSLRYYYAN | GDNNRPS | SSRDSSGMQVF | 3.24 / 2.70 / 2.86 | 3 of 9 (3.76) |
| EGDSLRYYYAN | GCNNRPH | SSRDSLGFQVF | nd / 4.05 / nd | 5 of 9 (4.23) |
| EGDSTRYYYAN | GKNNRPS | MSRDDSGFQVF | nd / nd / 1.67 | 0 of 9 |
| EGDSLRYYYAY | GKNNRCS | SSRDSSGWQVF | nd / nd / nd | 4 of 9 (3.66) |
| EGDSLRYFYAN | GKNNRPS | LSRHSSGFQVF | nd / nd / nd | 4 of 9 (3.88) |
| KGDSLRYYYAN | LKNNRPS | SSRDSSGFQVF | nd / nd / 3.65 | 0 of 9 |
| TGDSLRYYYAN | GPNNRPQ | SSRDSSGFQVF | 2.46 / 2.01 / 1.77 | 4 of 9 (3.43) |
| EFDSLRYYYAN | GTNNRPS | SSRDSSGFNVF | 3.27 / 3.41 / 3.32 | 3 of 9 (3.90) |
| EGDSLRYYYAC | GKNNRPS | SSRDSSGFCAF | nd / 5.63 / nd | 5 of 9 (4.07) |
| EGYSLRAYYAN | GKNNRPI | SSRDSSGFQVF | 3.44 / 3.12 / 3.68 | 4 of 9 (4.28) |
| EGDSLRYHYAN | GKRMRPS | SSRDSSGFQVF | 2.62 / 2.53 / 2.15 | 2 of 9 (4.08) |
| EGDSLRYYYCN | GKNNRPS | SSRDSSYFQKF | nd / nd / nd | 1 of 9 (3.19) |
| EGDSLRYYYHN | GKNNRTS | SSRDSYGFQVF | 4.70 / nd / nd | 1 of 9 (5.45) |
| EGDSLRYYYAG | GKNNRPS | SSRDSNGFQIF | 3.74 / 3.77 / nd | 1 of 9 (3.46) |
| EGGSARYYYAN | GPNNRPS | SSRDSSGFQVF | 2.89 / 2.48 / 3.38 | 8 of 9 (3.91) |
| EGDSLPYYYAN | GKNNRPS | SSRDPSGFIVF | 2.53 / 2.33 / 3.38 | 3 of 9 (3.84) |
| MEDSLRYYYAN | GKNNRPS | SSRDSSGFQVF | 5.00 / nd / nd | 2 of 9 (3.89) |
| EGDFLRYYYAN | GKNNRPS | SSRDSSGFWDF | nd / nd / nd | 1 of 9 (2.72) |
| EGDSLFYYYAN | GKNKRMS | SSRDSSGFQVF | 4.82 / nd / nd | 0 of 9 |
| EGKSLRYYYAN | GCNNRPS | SSRDKSGFQVF | 2.54 / 2.88 / 2.06 | 1 of 9 (4.59) |
| EGDSLRKYYAN | GKNNRPS | SSRNPSGFQVF | 2.77 / 3.58 / 2.83 | 0 of 9 |
| EGDSLRYYYAN | GKNNSRS | SSGDSSGFQVF | 4.54 / nd / nd | 3 of 9 (3.71) |
| EGDSLRCYYSN | GKNGRPS | SSRDSSGFQVF | 3.85 / nd / nd | 5 of 9 (3.27) |
| EGDSLRYYYAN | GKNNRPS | QSRLSSGFQMF | 2.14 / 2.31 / 3.65 | 1 of 9 (4.47) |
| EGDSLRYYYAN | GKNRRPS | ASRDSDGFQVF | 2.76 / 3.17 / nd | 2 of 9 (4.44) |

A selection of 2 entries from above:

| CDR-L1 | CDR-L2 | CDR-L3 | log10 Kd (nM) by replicate | signal with controls |
|---|---|---|---|---|
| EGDSLPYYYAN | GKNNRPS | SSRDPSGFIVF | 2.53 / 2.33 / 3.38 | 3 of 9 (3.84) |
| EGDSLRKYYAN | GKNNRPS | SSRNPSGFQVF | 2.77 / 3.58 / 2.83 | 0 of 9 |

Data: MIT Lincoln Laboratory AlphaSeq set, Engelhart et al. 2022, doi:10.1038/s41597-022-01779-4, as distributed in FLAb.